Biological target: T1, PPARα (Mus musculus, UniProt P23204)
T1 sequence (P23204 1-468): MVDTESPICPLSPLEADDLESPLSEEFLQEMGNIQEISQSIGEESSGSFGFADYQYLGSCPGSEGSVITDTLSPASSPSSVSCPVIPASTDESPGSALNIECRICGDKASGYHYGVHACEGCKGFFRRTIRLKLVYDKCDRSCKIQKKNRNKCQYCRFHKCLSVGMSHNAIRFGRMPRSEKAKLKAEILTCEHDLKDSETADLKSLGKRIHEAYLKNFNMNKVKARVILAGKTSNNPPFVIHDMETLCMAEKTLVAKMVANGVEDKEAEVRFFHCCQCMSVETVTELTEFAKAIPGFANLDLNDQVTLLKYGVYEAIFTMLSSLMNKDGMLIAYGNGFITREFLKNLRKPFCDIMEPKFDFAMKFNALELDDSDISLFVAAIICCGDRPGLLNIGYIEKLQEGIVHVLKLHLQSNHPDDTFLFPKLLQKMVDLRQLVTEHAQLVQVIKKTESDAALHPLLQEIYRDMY
Procedure: Cells were crosslinked with formaldehyde with a final concentration of 1% in media while shaking at room temperature for 10 min. The activity of the formaldehyde was quench with the addition of glycine while rocking for 5 min at room temperature. Cells were washed twice with 1×PBS, collected into a 15 ml conical tube and spun down at 3,000 rpm for 5 min. Pellets were rapidly frozen on dry ice ethanol mix and stored at −80° C. for a minimum of 1 hour or immediately resuspended in a series of lysis buffers (see table for ChIP buffer table) containing protease inhibitors for 5 min. Cells were sonicated for approximately 8 min per sample. The lysates were centrifuged for 10 min at 4° C. at 13,000 rpm. The lysates were pre-cleared in BSA/Salmon sperm blocked beads rotating for 2 hours at 4° C. […] Lysates were then incubated with Agarose A beads and rotated for 4 hours at 4° C. The samples were then washed with a ChIP washing buffer (see table for ChIP buffer table) 5 times. The protein was eluted in an Elution buffer at 65° C. for 30 min shaking every 2 min. The eluted samples were transferred to another tube and incubated at 65° C. overnight to reverse crosslinking. The samples were purified after 1-hour incubation with Proteinase K at 55° C. with a isopropanol/chloroform/ethanol mixture. DNA was quantified on a NanoDrop 2000 spectrophotometer (Thermo Fisher Scientific, Wilmington, DE). PCR amplification of the genomic DNA was performed by quantitative real-time PCR using TrueAmp SYBR Green qPCR SuperMix (Advance Bioscience). The thermocycling protocol consisted of 2 min at 50° C. and then 10 min at 95° C., 48 cycles of 30 sec at 95° C., 1 min at 65° C.

## Cc1cccc(Nc2cc(Cl)nc(SCC(=O)O)n2)c1C [WY 14,643, WY-14,643]
50 μM, 24 hours
  PPARα occupancy at the 13K enhancer of the Ucp1: stimulated
  PPARα occupancy at the −3306 to −3109 region of the Cpt1 promoter: significantly higher
BAT cells
  occupancy of PPARα at 13K enhancer of the Ucp1: increased
  occupancy of PPARα at the Cpt1 promoter: increased
  occupancy of PPARα at the enhancer region of the Adrb3 promoter: did not increase

Reference: patent publication US20250281460A1, “PEGYLATED BILIRUBIN FOR THE TREATMENT OF […], OBESITY, FATTY LIVER DISEASE, CARDIOVASCULAR DISEASES AND TYPE II DIABETES” (The University of Toledo, priority 2019, published 2025)
